One compound from ChEMBL document CHEMBL2346647, “Identification and characterization of small molecule inhibitors of signal transducer and activator of transcription 3 (STAT3) signaling pathway by virtual screening” (Bioorg Med Chem Lett, 2013) can be followed below.

This assay deals with HepG2. In words: Selectivity of STAT1 (unknown origin) over STAT3 in human HepG2 cells. It is filed as cell-based.

Molecules are shown by their SMILES.

Regarding `Oc1ccc(NCc2cc(Cl)ccc2OCc2ccc(Cl)cc2)cc1`, the Selectivity ratio is above 3.
